Laboratory results published in the DeepSol protein solubility set.

Test: soluble on expression in E. coli; label from the status in PepcDB or PDB records

Sequence	soluble on expression in E. coli
MGHHHHHHSHMTSFQEVPLQTSNFAHVIFQNVAKSYLPNAHLECHYTLTPYIHPHPKDWVGIFKVGWSTARDYYTFLWSPMPEHYVEGSTVNCVLAFQGYYLPNDDGEFYQFCYVTHKGEIRGASTPFQFRASSPVEELLTMEDEGNSDMLVVTTKAGLLE	soluble
MQGSVTEFLKPRLVDIEQVSSTHAKVTLEPLERGFGHTLGNALRAILLSSMPGCAVTEVEIDGVLHEYSTKEGVQEDILEILLNLKGLAVRVQGKDEVILTLNKSGIGPVTAADITHDGDVEIVKPQHVICHLTDENASISMRIKVQRGRGYVPASTRIHSEEDERPIGRLLVDACYSPVERIAYNVEAARVEQRTDLDKLVIEMETNGTIDPEEAIRRAATILAEQLEAFVDLR	soluble
